Target: cGMP-specific 3',5'-cyclic phosphodiesterase (Rattus norvegicus, UniProt O54735)
Experiment: Inhibitory concentration against phosphodiesterase 5 in rat fetal lung fibroblast (RFL-6) cells
Type: cell-based

## Oc1c2c(nc3ccccc13)C(c1ccc3c(c1)CCO3)N(c1ncc(-c3ccccn3)cn1)C2 (stereo unspecified)
  IC50: 0.4 nM

From ChEMBL document CHEMBL1142740, “Pyrroloquinolone PDE5 inhibitors with improved pharmaceutical profiles for clinical studies on erectile dysfunction” (J Med Chem, 2005)
